Article PMC5658604, “An ArsR/SmtB family member regulates arsenic resistance genes unusually arranged in Thermus thermophilus HB27” (2017)

The chains behind the UniProt entries cited, without tags or fusion partners. Residues count along the entry.
UniProt Q72KG0, 1-123 limits assumed: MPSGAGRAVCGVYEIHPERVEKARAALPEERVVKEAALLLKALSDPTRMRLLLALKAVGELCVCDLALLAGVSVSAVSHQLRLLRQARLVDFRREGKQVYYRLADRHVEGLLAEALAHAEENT

Biological target: TtSmtB (Thermus thermophilus, UniProt Q72KG0)
Assay: far-UV circular dichroism titration at […] nm
Conditions: read-out: apparent K d; 25 mM Na-phosphate pH 7.0, about 3 μM protein; one-binding-site fit; effector that releases DNA

SMILES | Kd [µM]
O=[As](O)(O)O | 60
O[As](O)O | 250
